# Data from PubChem BioAssay (NCATS).
# The chains behind the UniProt entries cited, without tags or fusion partners.
# UniProt P10635, whole entry, looked up: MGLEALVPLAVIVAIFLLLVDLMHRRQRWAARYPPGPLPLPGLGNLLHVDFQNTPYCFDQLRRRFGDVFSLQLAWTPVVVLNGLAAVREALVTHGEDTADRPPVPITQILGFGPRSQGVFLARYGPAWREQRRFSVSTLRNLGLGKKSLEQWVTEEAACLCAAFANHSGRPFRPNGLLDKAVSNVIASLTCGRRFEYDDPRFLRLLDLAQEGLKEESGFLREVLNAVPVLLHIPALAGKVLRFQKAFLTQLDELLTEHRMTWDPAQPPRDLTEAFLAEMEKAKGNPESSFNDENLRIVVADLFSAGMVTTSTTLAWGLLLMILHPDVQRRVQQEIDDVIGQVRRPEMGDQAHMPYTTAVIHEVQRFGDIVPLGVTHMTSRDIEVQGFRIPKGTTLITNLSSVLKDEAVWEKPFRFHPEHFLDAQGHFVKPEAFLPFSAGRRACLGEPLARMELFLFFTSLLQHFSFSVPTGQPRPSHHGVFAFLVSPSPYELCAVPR
# UniProt P08684, whole entry, looked up: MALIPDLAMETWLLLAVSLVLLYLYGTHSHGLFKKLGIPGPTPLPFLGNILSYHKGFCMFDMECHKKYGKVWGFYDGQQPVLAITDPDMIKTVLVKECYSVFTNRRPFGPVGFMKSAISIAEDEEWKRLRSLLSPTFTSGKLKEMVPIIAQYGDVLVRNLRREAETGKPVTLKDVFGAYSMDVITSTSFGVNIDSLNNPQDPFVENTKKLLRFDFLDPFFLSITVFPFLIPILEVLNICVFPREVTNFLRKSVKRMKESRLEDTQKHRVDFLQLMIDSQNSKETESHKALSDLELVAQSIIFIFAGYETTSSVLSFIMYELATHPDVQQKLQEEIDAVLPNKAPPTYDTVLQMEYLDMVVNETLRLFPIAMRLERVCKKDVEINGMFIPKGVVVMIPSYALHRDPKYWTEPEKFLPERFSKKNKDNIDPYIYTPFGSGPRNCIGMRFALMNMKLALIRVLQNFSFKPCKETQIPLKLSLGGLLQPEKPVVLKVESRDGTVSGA
# UniProt P11712, whole entry, looked up: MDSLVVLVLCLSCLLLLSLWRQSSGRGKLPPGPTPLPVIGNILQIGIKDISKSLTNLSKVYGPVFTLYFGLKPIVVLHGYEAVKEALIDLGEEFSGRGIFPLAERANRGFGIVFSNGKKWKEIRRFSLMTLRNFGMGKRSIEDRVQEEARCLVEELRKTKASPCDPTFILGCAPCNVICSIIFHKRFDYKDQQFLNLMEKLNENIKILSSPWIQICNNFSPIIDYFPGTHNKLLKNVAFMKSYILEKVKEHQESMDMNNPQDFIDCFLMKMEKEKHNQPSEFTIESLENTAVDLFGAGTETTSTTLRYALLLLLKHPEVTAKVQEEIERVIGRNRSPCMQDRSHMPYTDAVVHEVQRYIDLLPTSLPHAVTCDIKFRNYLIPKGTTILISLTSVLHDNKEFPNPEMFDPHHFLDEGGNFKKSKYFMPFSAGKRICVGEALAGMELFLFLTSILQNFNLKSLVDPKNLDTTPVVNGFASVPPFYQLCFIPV
# The list shows a part of the results, in another mix than the full data. Results filed as inconclusive are left out. Active and inactive are the calls of the source. Unless noted, calls follow the shape of the dose curve; as a rule, active = well fitted curve in the direction sought with a large enough effect; inconclusive = small, poorly fitted or top-dose-only effect, or another doubt; inactive = no such curve, though single readings can be large; an effect the other way counts as inactive or inconclusive.
# How the values were obtained:
# [1] = biological target: Cytochrome P450 2D6 (Homo sapiens) (UniProt P10635); experiment: Cytochrome P450 family 2 subfamily D member 6 (CYP2D6) small molecule antagonists: luciferase biochemical (cell-free) qHTS assay (AID 1645840; active = well fitted curve in the direction sought with a large enough effect in the repeat runs; an effect the other way counts as inactive or inconclusive; also: potency is read from the fitted curve at half-maximal effect; nearly all actives have a fitted effect of over 55% in size)
# Outline: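 P450-Glo luminescent screen: recombinant CYP2D6 enzyme–proluciferin substrate mix preincubated with compound 10 min at room temperature, then NADPH regeneration added for 1 h at room temperature. Detection reagent added for 20 min; luciferin light read as relative luminescence units.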
# [2] = biological target: Cytochrome P450 3A4 (Homo sapiens) (UniProt P08684); experiment: Cytochrome P450 family 3 subfamily A member 4 (CYP3A4) small molecule antagonists: luciferase qHTS assay (AID 1645841; active = well fitted curve in the direction sought with a large enough effect in the repeat runs; an effect the other way counts as inactive or inconclusive; also: potency is read from the fitted curve at half-maximal effect; nearly all actives have a fitted effect of over 45% in size)
# [3] = biological target: Cytochrome P450 2C9 (Homo sapiens) (UniProt P11712); experiment: Cytochrome P450 family 2 subfamily C member 9 (CYP2C9) small molecule antagonists: luciferase qHTS assay (AID 1645842; active = well fitted curve in the direction sought with a large enough effect in the repeat runs; an effect the other way counts as inactive or inconclusive; also: % is scaled to controls: 0 for no effect and ±100 for the full control effect; nearly all actives have a fitted effect of over 55% in size); settings: P450-Glo CYP2C9 enzyme assay, luciferin luminescence; at 57.4 µM (top of the series) unless noted
# Outline: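 Luminescence, after 20 min with luciferin detection reagent, reflected CYP2C9 turnover during a 1 h NADPH-driven reaction at 37C. Enzyme-substrate mix contained 0.4% bovine serum albumin and was preincubated with compound 10 min at room temperature.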
# [4] = Primary qHTS for inhibitors of nuclear receptor binding SET domain protein 2 (NSD2) in an isogenic RCH-ACV NSD2 p.E1099K mutant (9B) (AID 1645876); also: % is scaled to controls: 0 for no effect and ±100 for the full control effect; nearly all actives have a fitted effect of over 70% in size
# [5] = Primary qHTS for inhibitors of nuclear receptor binding SET domain protein 2 (NSD2) in an RCH-ACV wild type WT cells (2C) (AID 1645877); also: % is scaled to controls: 0 for no effect and ±100 for the full control effect; nearly all actives have a fitted effect of over 70% in size
# From the text: Assay Provider: Jonathan D. Licht, MD
# University of Florida College of Medicine, Gainesville, FL
# Mutations in epigenetic regulators are common in relapsed pediatric acute lymphoblastic leukemia (ALL). Here, we uncovered the mechanism underlying the relapse of ALL driven by an activating mutation of the NSD2 histone methyltransferase (p.E1099K). […] Correction of this mutation restored glucocorticoid sensitivity. The transcriptional response to glucocorticoids was blocked in NSD2 mutant cells due to depressed glucocorticoid receptor (GR) levels and the failure of glucocorticoids to autoactivate GR expression. […] Pre-treatment of NSD2 p.E1099K cell lines and PDX samples with PRC2 inhibitors reversed glucocorticoid resistance in vitro and in vivo.
# High-throughput drug screening of isogenic RCH-ACV cell lines was performed at the National Center for Advancing Translational Science (NCATS), National Institutes of Health as previously described (1). Briefly, isogenic RCH-ACV NSD2 p.E1099K mutant (9B) and WT cells (2C) were plated at 500 cells/well in a 1536-well plate with a 72-hour incubation with compounds prior to addition of CellTiter-Glo to assess cell viability. NCATS libraries screened include: NPC, MIPE 5.0, Kinase and NPACT. […]
# CRL-7250 = normal cell line; experiment: Cytotoxic Profiling of Annotated Libraries Using Quantitative High-Throughput Screening (AID 1296008); settings: Five cell lines viability, CellTiter-Glo ATP luminescence, 48-72 h; active compounds read low; also: nearly all actives have a fitted effect of over 60% in size; as to max response: % is scaled to controls: 0 for no effect and ±100 for the full control effect
# HEK293 = experiment: as above; settings: Five cell lines viability, CellTiter-Glo ATP luminescence, 48-72 h; max response: active compounds read low
# HaCat = experiment: as above; settings: Five cell lines viability, CellTiter-Glo ATP luminescence, 48-72 h; active compounds read low
# NIH3T3 [6] = experiment: as above; settings: Five cell lines viability, CellTiter-Glo ATP luminescence, 48-72 h; active compounds read low
# MCC-13 = experiment: qHTS assay to identify novel small-molecules to repurpose for Merkel cell carcinoma treatment (AID 1296009); settings: MCC and control cell lines, CellTiter-Glo viability, 72 h; at 46 µM (top of the series) unless noted; also: nearly all actives have a fitted effect of over 60% in size; as to activity change, negative = cytotoxicity: % is scaled to controls: 0 for no effect and ±100 for the full control effect
# MCC-26 = experiment: as above; settings: MCC and control cell lines, CellTiter-Glo viability, 72 h; at 46 µM (top of the series) unless noted
# MKL-1 = experiment: as above; settings: MCC and control cell lines, CellTiter-Glo viability, 72 h; at 46 µM (top of the series) unless noted
# MKL-2 = experiment: as above; settings: MCC and control cell lines, CellTiter-Glo viability, 72 h; at 46 µM (top of the series) unless noted
# NIH3T3 [7] = experiment: as above; settings: MCC and control cell lines, CellTiter-Glo viability, 72 h; at 44.8 µM (top of the series)
# UISO = experiment: as above; settings: MCC and control cell lines, CellTiter-Glo viability, 72 h; at 46 µM (top of the series)
# WaGa = experiment: as above; settings: MCC and control cell lines, CellTiter-Glo viability, 72 h; at 46 µM (top of the series) unless noted
# C33A = experiment: Primary qHTS to identify gynecologic anti-cancer compounds using libraries of approved drugs and bioactive compounds (AID 1345084); settings: Gynecologic cancer cell panel viability, ATPlite luminescence, 48 h; at 57.5 µM (top of the series) unless noted; also: % is scaled to controls: 0 for no effect and ±100 for the full control effect; nearly all actives have a fitted effect of over 55% in size
# Outline: (§1)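 ATP-based viability (ATPlite), 1,000 cells/well, 16 h pre-incubation, 48 h compound at 37 C, 5% CO2, 15 min RT before read.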
# CAOV3 = experiment: as above; settings: Gynecologic cancer cell panel viability, ATPlite luminescence, 48 h; at 57.5 µM (top of the series) unless noted
# Outline: as §1
# CASKI = experiment: as above; settings: Gynecologic cancer cell panel viability, ATPlite luminescence, 48 h; at 57.5 µM (top of the series) unless noted
# Outline: as §1
# Es-2 = experiment: as above; settings: Gynecologic cancer cell panel viability, ATPlite luminescence, 48 h; at 57.5 µM (top of the series) unless noted
# Outline: as §1
# HeLa = experiment: as above; settings: Gynecologic cancer cell panel viability, ATPlite luminescence, 48 h; at 57.5 µM (top of the series) unless noted
# Outline: as §1
# JEG-3 = experiment: as above; settings: Gynecologic cancer cell panel viability, ATPlite luminescence, 48 h; at 57.5 µM (top of the series) unless noted
# Outline: as §1
# OV90 = experiment: as above; settings: Gynecologic cancer cell panel viability, ATPlite luminescence, 48 h; at 57.5 µM (top of the series) unless noted
# Outline: as §1
# PA-1 = experiment: as above; settings: Gynecologic cancer cell panel viability, ATPlite luminescence, 48 h; at 57.5 µM (top of the series) unless noted
# Outline: as §1
# Tov-21-G = experiment: as above; settings: Gynecologic cancer cell panel viability, ATPlite luminescence, 48 h; at 57.5 µM (top of the series) unless noted
# Outline: as §1
# Tov112D = experiment: as above; settings: Gynecologic cancer cell panel viability, ATPlite luminescence, 48 h; at 57.5 µM (top of the series) unless noted
# Outline: as §1
smiles,measurement,setting,value
CN(C(=O)Cc1ccc(Cl)c(Cl)c1)[C@H]1CC[C@@]2(CCCO2)C[C@@H]1N1CCCC1,Potency,[1],active: 1.1 µM
same,Potency,[2],active: 3.47 µM
same,"activity change, negative = inhibition",[3],inactive: 4.37%
same,Potency,[4],inactive
same,Potency,[5],inactive
same,max response,CRL-7250,inactive: 1.91%
same,max response,HEK293,inactive: 1.41%
same,max response,HaCat,inactive: -1.16%
same,outcome,NIH3T3 [6],inactive
same,"activity change, negative = cytotoxicity",MCC-13,inactive: 12.8%
same,"activity change, negative = cytotoxicity",MCC-26,inactive: -3.68%
same,"activity change, negative = cytotoxicity",MKL-1,inactive: -0.196%
same,"activity change, negative = cytotoxicity",MKL-2,inactive: 10.6%
same,outcome,NIH3T3 [7],inactive
same,"activity change, negative = cytotoxicity",UISO,inactive: 4.19%
same,"activity change, negative = cytotoxicity",WaGa,inactive: 9.59%
same,"activity change, negative = cytotoxicity",C33A,inactive: 6.13%
same,"activity change, negative = cytotoxicity",CAOV3,inactive: -1.12%
same,"activity change, negative = cytotoxicity",CASKI,inactive: 2.2%
same,"activity change, negative = cytotoxicity",Es-2,inactive: 13.3%
same,"activity change, negative = cytotoxicity",HeLa,inactive: 1.49%
same,"activity change, negative = cytotoxicity",JEG-3,inactive: 2.38%
same,"activity change, negative = cytotoxicity",OV90,inactive: 0.189%
same,"activity change, negative = cytotoxicity",PA-1,inactive: 14.4%
same,"activity change, negative = cytotoxicity",Tov-21-G,inactive: 0.251%
same,"activity change, negative = cytotoxicity",Tov112D,inactive: 0.195%
